Assay [1] concerns the target T1, membrane CD24 on hepatoma cells (Huh-7, BEL-7402) (Homo sapiens, UniProt P25063).
T1 chain: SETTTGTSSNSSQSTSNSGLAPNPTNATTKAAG
In words: cell-based or functional assay.

The next assay addresses T2, CD24-GST (Homo sapiens, UniProt P25063).
T2 construct: cluster of differentiation 24 (CD24) fused to GST; also called GST-CD24
T2 chain: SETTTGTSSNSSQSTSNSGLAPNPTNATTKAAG
In words: SPR; Biacore X100; CD24-GST flowed over immobilized antibody; 1:1 binding model; procedure as in ref. 45. Particulars: both partners purified. (Surface plasmon resonance follows binding to a sensor surface in real time, without labels.)

The target of assay [2] is T1, membrane CD24 on hepatoma cells (Huh-7, …). In words: flow cytometry on cells; antibody on Huh-7 and BEL-7402 hepatoma cells, also after RNA interference against CD24; procedure as in ref. 12. Particulars: one partner purified. For orientation: Flow cytometry measures light scatter and fluorescence of single cells or particles in a stream.

B1: hG7-BM3 (hVH-B2, hVL-B1) (antibody, V domains shown)
VH: QVQLVESGGGVVQPGRSLRLSCAASGFTFSRYWMSWVRQAPGKGLEWIAEINPDSSTINYTPSLRDKFTISRDNSKNTLYLQMSSLRAEDTAVYYCARQGDYWGQGTLVTVSS
VL: DIVMTQTPLSLSVTPGQPASISCKSSQSLLHSDGKTYLNWYLQKPGQSPQRLIYLVSKLDSGVPDRFSGSGSGTDFTLKISRVEAEDVGVYYCWQGAHFPYTFGQGTKLEIK
On to B1, for which, in assay [1], the “ADCC: lysis of BEL-7402 cells by NK92-FcR cells, E/T ratio 10:1, 100 μg/mL hG7-BM3 (LDH release)” value was found to be 40.7%; the “ADCC: lysis of Huh-7 cells by NK92-FcR cells, E/T ratio 10:1, 100 μg/mL hG7-BM3 (LDH release)” value was 42.2%; the “tumor/normal tissue ratio at 4 h, near-infrared imaging of IRB-hG7-BM3 in Huh-7-bearing nude mice (1.14 in the group blocked with free hG7-BM3)” value stood at 2.5. In the assay with CD24-GST, the koff was 0.000455 s⁻¹ and the kon was found to be 799000 M⁻¹ s⁻¹. In assay [2], the “binding rate to BEL-7402 cells” value is 69.1% and the “binding rate to Huh-7 cells” value came out at 77.9%.

B2: hG7-BM1 (hVH-B1, hVL-B1) (antibody, V domains shown)
VH: QVQLVESGGGVVQPGRSLRLSCAASGFTFSRYWMSWVRQAPGKGLEWIAEINPDSSTINYTPSLRDRFTISRDNSKNTLYLQMSSLRAEDTAVYYCARQGDYWGQGTLVTVSS
VL: DIVMTQTPLSLSVTPGQPASISCKSSQSLLHSDGKTYLNWYLQKPGQSPQRLIYLVSKLDSGVPDRFSGSGSGTDFTLKISRVEAEDVGVYYCWQGAHFPYTFGQGTKLEIK
As for B2, in assay [2], the “binding rate to BEL-7402 cells” value was found to be 54.5% and the “binding rate to Huh-7 cells” value stood at 58.2%.

One may read the koff as the rate constant with which the complex falls apart. A higher koff goes with a short-lived complex. As a reminder, the kon is the rate constant with which the complex forms.

The record behind these values is PMC5584245 (Oncotarget, 2017).
